Assay results as given in patent US20160009824A1.

Target: Human CD47 (coated on ELISA plates) (human) (UniProt Q08722)
Experiment: ELISA on plate-coated human CD47, detection with HRP goat anti-human IgG Fcγ, A450

## anti-EGFR/anti-CD47 TetBiAb (bispecific antibody)
  EC50 (read off the curve): 8 nM
